Assays:
PRDM9 = PRDM9 (Homo sapiens, UniProt Q9NQV7); settings: 10 μM Compound A; SAM 1 μM; substrate Histone H3
[1] = dog, 21-day MTD 25 mg/kg
[2] = rat, calculated from 14-day MTD 150 mg/kg
in vivo [3] = settings: rat
in vivo [4] = settings: dog

By UniProt entry, the sequences of proteins in these tests, tags left out. Where a name states a change or a piece, a line headed by the entry shows the natural chain unless it says otherwise.
UniProt Q9NQV7: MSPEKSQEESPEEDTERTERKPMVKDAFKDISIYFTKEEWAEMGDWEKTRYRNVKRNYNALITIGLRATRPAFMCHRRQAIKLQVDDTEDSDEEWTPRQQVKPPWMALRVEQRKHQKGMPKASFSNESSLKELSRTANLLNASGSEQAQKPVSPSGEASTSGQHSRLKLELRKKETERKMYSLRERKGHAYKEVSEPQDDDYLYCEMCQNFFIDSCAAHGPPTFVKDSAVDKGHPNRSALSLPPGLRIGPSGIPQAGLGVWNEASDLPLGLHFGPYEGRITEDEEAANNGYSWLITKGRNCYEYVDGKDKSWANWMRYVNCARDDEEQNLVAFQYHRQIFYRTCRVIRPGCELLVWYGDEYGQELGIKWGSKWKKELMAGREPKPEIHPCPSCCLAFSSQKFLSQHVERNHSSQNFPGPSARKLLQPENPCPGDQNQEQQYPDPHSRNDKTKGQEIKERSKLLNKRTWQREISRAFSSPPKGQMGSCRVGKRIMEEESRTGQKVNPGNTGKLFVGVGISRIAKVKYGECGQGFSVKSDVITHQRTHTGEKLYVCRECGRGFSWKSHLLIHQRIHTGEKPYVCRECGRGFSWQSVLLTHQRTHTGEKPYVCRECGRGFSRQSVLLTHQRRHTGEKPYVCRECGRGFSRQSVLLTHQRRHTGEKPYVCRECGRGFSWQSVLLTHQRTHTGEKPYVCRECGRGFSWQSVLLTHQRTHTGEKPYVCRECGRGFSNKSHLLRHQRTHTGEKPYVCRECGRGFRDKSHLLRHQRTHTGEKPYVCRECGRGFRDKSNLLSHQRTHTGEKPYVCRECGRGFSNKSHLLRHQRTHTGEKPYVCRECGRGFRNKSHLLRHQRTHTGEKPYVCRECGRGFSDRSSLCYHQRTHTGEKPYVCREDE

With `CCOCC1(COCC)CCC(c2n[nH]cc2CN(C)CCNC)CC1` [Compound A] the “Average % Inhibition” value (PRDM9) was 17.99%, the “total AUC or Cave” value [1] was 3200 nM and the “total AUC or exposure (Cave)” value [2] was 2100 nM. It also gave an MTD at 14 days (in vivo [3]) of 150 mg/kg, a concentration at 14 days (in vivo [3]; 150 mg/kg) of 2100 nM and an MTD at 21 days (in vivo [4]) of 25 mg/kg.

— US20230094076A1, “COMBINATION THERAPY” (GlaxoSmithKline Intellectual Property Development Limited, priority 2016, published 2023)
